Laboratory results as given in patent publication US8840891 (RSR, dated 2014).

Columns and labels:
Assay in all cases: cell-based or functional assay
[1] = target: human TSHR with Asp276 mutated to Alanine, expressed in CHO cells (human) (UniProt P16473)
[2] = target: human TSHR (wild type) expressed in CHO cells (human) (UniProt P16473)
[3] = target: TSHR with Lys58 mutated to Alanine (human) (UniProt P16473)
[4] = target: wild type human TSHR (human) (UniProt P16473)
[5] = target: human TSHR Asp203Ala, expressed in CHO cells (human) (UniProt P16473)
[6] = target: TSHR with Ile60 mutated to Alanine (human) (UniProt P16473)
[7] = target: wild type human TSHR (human) (UniProt P16473); remark: listed apart in the source
[8] = target: TSHR with Thr104 mutated to Alanine (human) (UniProt P16473)
[9] = target: wild type human TSHR (human) (UniProt P16473); remark: listed apart in the source
[10] = target: TSHR with Arg109 mutated to Alanine (human) (UniProt P16473)
[11] = target: wild type human TSHR (human) (UniProt P16473); remark: listed apart in the source
[12] = target: wild type human TSHR (human) (UniProt P16473); remark: listed apart in the source
[13] = target: TSHR with Lys129 mutated to Alanine (human) (UniProt P16473)
[14] = target: TSHR with Arg80 mutated to Alanine (human) (UniProt P16473)
[15] = target: wild type human TSHR (human) (UniProt P16473); remark: listed apart in the source
[16] = target: TSHR with Asp151 mutated to Arginine (human) (UniProt P16473)
[17] = target: wild type human TSHR (human) (UniProt P16473); remark: listed apart in the source
[18] = target: TSHR with Tyr82 mutated to Alanine (human) (UniProt P16473)
[19] = target: wild type human TSHR (human) (UniProt P16473); remark: listed apart in the source
[20] = target: TSHR with Arg80 mutated to Aspartic acid (human) (UniProt P16473)
[21] = target: wild type human TSHR (human) (UniProt P16473); remark: listed apart in the source
[22] = target: TSHR with Trp258 mutated to Alanine (human) (UniProt P16473)
[23] = target: wild type human TSHR (human) (UniProt P16473); remark: listed apart in the source
[24] = target: TSHR with Arg255 mutated to Alanine (human) (UniProt P16473)
[25] = target: wild type human TSHR (human) (UniProt P16473); remark: listed apart in the source
[26] = target: TSHR with Asp151 mutated to Alanine (human) (UniProt P16473)
[27] = target: wild type human TSHR (human) (UniProt P16473); remark: listed apart in the source
[28] = target: TSHR with Phe134 mutated to Alanine (human) (UniProt P16473)
[29] = target: wild type human TSHR (human) (UniProt P16473); remark: listed apart in the source
[30] = target: TSHR with Arg255 mutated to Aspartic acid (human) (UniProt P16473)
[31] = target: wild type human TSHR (human) (UniProt P16473); remark: listed apart in the source
[32] = target: TSHR with Lys183 mutated to Aspartic acid (human) (UniProt P16473)
[33] = target: wild type human TSHR (human) (UniProt P16473); remark: listed apart in the source
[34] = target: wild type human TSHR (human) (UniProt P16473); remark: listed apart in the source
[35] = target: TSHR with Gln235 mutated to Alanine (human) (UniProt P16473)
[36] = target: TSHR with Ser281 mutated to Alanine (human) (UniProt P16473)
[37] = target: wild type human TSHR (human) (UniProt P16473); remark: listed apart in the source
[38] = target: TSHR with Lys183 mutated to Alanine (human) (UniProt P16473)
[39] = target: wild type human TSHR (human) (UniProt P16473); remark: listed apart in the source

- Cyclic AMP produced; TSH only (pTSH 3 ng/mL); Experiment 1 (fmol/cell well) [1]: 22400
- Cyclic AMP produced; TSH only (pTSH 3 ng/mL); Experiment 2 (fmol/cell well) [1]: 14600
- Mutated/wild type (%) of cyclic AMP; TSH only (pTSH 3 ng/mL); Experiment 1 [1]: 128%
- Mutated/wild type (%) of cyclic AMP; TSH only (pTSH 3 ng/mL); Experiment 2 [1]: 106%
- Cyclic AMP produced; TSH only (pTSH 3 ng/mL); Experiment 1 (fmol/cell well) [2]: 17500
- Cyclic AMP produced; TSH only (pTSH 3 ng/mL); Experiment 2 (fmol/cell well) [2]: 13900
- cyclic AMP concentration; pTSH 3 ng/mL alone (fmol/cell well) [2]: 9360
- cyclic AMP production; pTSH 3 ng/mL only (fmol/cell well) [2]: 12300
- cyclic AMP; Example 1; TSH 3 ng/mL only (fmol/cell well) [2]: 18600
- cyclic AMP; Example 2; TSH 3 ng/mL only (fmol/cell well) [2]: 19400
- cyclic AMP; pTSH (3 ng/mL) only (fmol/cell well) [2]: 19000
- Mutated/wild type (%); TSH only [3]: 123%
- cyclic AMP; TSH 3 ng/mL only (fmol/cell well) [3]: 13200
- cyclic AMP; TSH 3 ng/mL only (fmol/cell well) [4]: 10700
- cyclic AMP concentration; pTSH 3 ng/mL alone (fmol/cell well) [5]: 7590
- Mutated/wild type (%); TSH only [6]: 123%
- cyclic AMP; TSH 3 ng/mL only (fmol/cell well) [6]: 22900
- cyclic AMP; TSH 3 ng/mL only (fmol/cell well) [7]: 18700
- Mutated/wild type (%); TSH only [8]: 126%
- cyclic AMP; TSH 3 ng/mL only (fmol/cell well) [8]: 14200
- cyclic AMP; TSH 3 ng/mL only (fmol/cell well) [9]: 11300
- Mutated/wild type (%); TSH only [10]: 71%
- cyclic AMP; TSH 3 ng/mL only (fmol/cell well) [10]: 9770
- cyclic AMP; TSH 3 ng/mL only (fmol/cell well) [11]: 13800
- cyclic AMP; TSH 3 ng/mL only (fmol/cell well) [12]: 15600
- Mutated/wild type (%); TSH only [13]: 99%
- cyclic AMP; TSH 3 ng/mL only (fmol/cell well) [13]: 15500
- Mutated/wild type (%); TSH only [14]: 104%
- cyclic AMP; TSH 3 ng/mL only (fmol/cell well) [14]: 12900
- cyclic AMP; TSH 3 ng/mL only (fmol/cell well) [15]: 12500
- Mutated/wild type (%); TSH only [16]: 180%
- cyclic AMP; TSH 3 ng/mL only (fmol/cell well) [16]: 20000
- cyclic AMP; TSH 3 ng/mL only (fmol/cell well) [17]: 11100
- Mutated/wild type (%); TSH only [18]: 121%
- cyclic AMP; TSH 3 ng/mL only (fmol/cell well) [18]: 15300
- cyclic AMP; TSH 3 ng/mL only (fmol/cell well) [19]: 12700
- Mutated/wild type (%); TSH only [20]: 143%
- cyclic AMP; TSH 3 ng/mL only (fmol/cell well) [20]: 19400
- cyclic AMP; TSH 3 ng/mL only (fmol/cell well) [21]: 13600
- Mutated/wild type (%); TSH only [22]: 33%
- cyclic AMP; TSH 3 ng/mL only (fmol/cell well) [22]: 7100
- cyclic AMP; TSH 3 ng/mL only (fmol/cell well) [23]: 21000
- Mutated/wild type (%); TSH only [24]: 106%
- cyclic AMP; TSH 3 ng/mL only (fmol/cell well) [24]: 15200
- cyclic AMP; TSH 3 ng/mL only (fmol/cell well) [25]: 14400
- Mutated/wild type (%); TSH only [26]: 93%
- cyclic AMP; TSH 3 ng/mL only (fmol/cell well) [26]: 10500
- cyclic AMP; TSH 3 ng/mL only (fmol/cell well) [27]: 11300
- Mutated/wild type (%); TSH only [28]: 88%
- cyclic AMP; TSH 3 ng/mL only (fmol/cell well) [28]: 15500
- cyclic AMP; TSH 3 ng/mL only (fmol/cell well) [29]: 17600
- Mutated/wild type (%); TSH only [30]: 103%
- cyclic AMP; TSH 3 ng/mL only (fmol/cell well) [30]: 18100
- cyclic AMP; TSH 3 ng/mL only (fmol/cell well) [31]: 17500
- Mutated/wild type (%); TSH only [32]: 120%
- cyclic AMP; TSH 3 ng/mL only (fmol/cell well) [32]: 17700
- cyclic AMP; TSH 3 ng/mL only (fmol/cell well) [33]: 14700
- cyclic AMP; TSH 3 ng/mL only (fmol/cell well) [34]: 14900
- Mutated/wild type (%); TSH only [35]: 106%
- cyclic AMP; TSH 3 ng/mL only (fmol/cell well) [35]: 15800
- Mutated/wild type (%); TSH only [36]: 195%
- cyclic AMP; TSH 3 ng/mL only (fmol/cell well) [36]: 26400
- cyclic AMP; TSH 3 ng/mL only (fmol/cell well) [37]: 13600
- Mutated/wild type (%); TSH only [38]: 90%
- cyclic AMP; TSH 3 ng/mL only (fmol/cell well) [38]: 20200
- cyclic AMP; TSH 3 ng/mL only (fmol/cell well) [39]: 22400
Substance: porcine TSH (from UniProt P01219 25-120; P01224 21-132) (ligand)

Read-outs that look alike come from different tables or passages of the source.
